Activation data for 29 compounds are collected here from PubChem BioAssay AID1359 (The Scripps Research Institute Molecular Screening Center, 2008).

By UniProt entry, the sequences of proteins in these tests, tags left out.
UniProt P49146, whole entry: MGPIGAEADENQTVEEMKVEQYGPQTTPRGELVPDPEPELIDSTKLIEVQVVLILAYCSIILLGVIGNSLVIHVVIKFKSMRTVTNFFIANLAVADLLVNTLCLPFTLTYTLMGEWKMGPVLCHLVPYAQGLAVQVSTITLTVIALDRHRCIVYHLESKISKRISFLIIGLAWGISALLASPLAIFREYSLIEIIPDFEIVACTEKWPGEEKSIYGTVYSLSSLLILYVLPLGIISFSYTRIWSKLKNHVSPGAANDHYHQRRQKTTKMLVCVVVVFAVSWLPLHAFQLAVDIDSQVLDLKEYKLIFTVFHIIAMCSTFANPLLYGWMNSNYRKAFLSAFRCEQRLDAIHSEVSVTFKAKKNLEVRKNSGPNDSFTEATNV

The list shows a part of the results, in another mix than the full data. The source made the active and inactive calls. No stated cut-off is given here; in the data, active means activation above about 27%; inactive means the rest.

For this assay, the target named is Neuropeptide Y receptor type 2 (Homo sapiens) (UniProt P49146). The experiment in a line: human Y2 receptor positive modulation or activation – cell-based, primary screen (AID 1359).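 Further: cells stimulated with NPY near EC25 plus isoproterenol at EC100; 0% = vehicle plus submaximal agonist and 100% = vehicle plus saturating agonist.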 The note with it: cells expressing NPY-Y2, potentiator/agonist read-out; at 3.6 µM; active compounds read high.
On to `Cc1ccc(OCC(C)C)c(CN(CCCl)CCCl)c1`, for which the activation was inactive: -15.4%.
Next, `CCOc1ccc(C)cc1CN(CCCl)CCCl`: inactive: -11.7%; `COc1ccc(NC2CCN(CCc3ccccc3)CC2)c(OC)c1`: inactive: 1.94%; `O=C(NCC1(N2CCOCC2)CCCCC1)c1cc2ccccc2o1`: inactive: 4.61%.
The figure for `CCOC(=O)N1CCC(Nc2ccc(OC)cc2)CC1` is inactive: 8.9%.
Turning to `N#CC1(Nc2ccccc2)CCN(Cc2ccccc2)CC1`, the activation was inactive: -7.35%.
Next, `O=C(OC1CN2CCC1CC2)C1c2ccccc2Oc2ccccc21` (centres undefined): inactive: -28.9%.
Regarding `COc1ccc(C(=O)NCC2(N3CCCCC3)CCCCC2)c(OC)c1OC`, the activation is active: 50.9%.
`CN1CCC(Nc2cccc(F)c2)CC1`: the activation was inactive: -3.17%.
Next, `COc1ccc(CN(CCCl)CCCl)cc1Cl`: inactive: -16.3%; `CN(C)c1cccc(C(=O)NCC2(N3CCCCC3)CCCCC2)c1`: inactive: 9.16%; `CC(C)c1ccc(NC2CCN(C(=O)OC(C)(C)C)CC2)cc1`: inactive: 0.65%.
With `COc1ccc(NC2CCN(C(=O)OC(C)(C)C)CC2)cc1`, the activation is inactive: -2.65%.
For `CN1CCN(CCOC(=O)C(O)(c2ccccc2)c2ccccc2)CC1`, the activation is inactive: 10.2%.
Next, `O=C(NCC1(N2CCOCC2)CCCCC1)c1cc(=O)[nH]c2ccccc12`: inactive: -16.3%.
For the compound `O=C(NCC1(N2CCCCC2)CCCCC1)c1cccc([N+](=O)[O-])c1`, the activation was inactive: -6.1%.
Take `N#CC1(Nc2ccccc2)CCN(CCc2ccccc2)CC1`: the activation is inactive: 0.2%.
On to `c1ccc(CN2CCC(Nc3ccccc3)CC2)cc1`, for which the activation was inactive: 7.78%.
For the compound `N#Cc1ccc(C(=O)NCC2(N3CCCCC3)CCCCC2)cc1`, the activation is inactive: -12.8%.
Next, `N/C(=N\O)c1c(N)no[n+]1[O-]`: inactive: -8.16%; `O=C(OC1CN2CCC1CC2)C1c2ccccc2C=Cc2ccccc21` (centres undefined): inactive: 3.84%; `COc1ccc(C(=O)NCC2(N3CCOCC3)CCCCC2)cc1OC`: inactive: -14%.
The figure for `CCC(CO)(C(=O)OC1CN2CCC1CC2)c1ccccc1` (centres undefined) is inactive: 15.1%; for `COc1cc(OC)cc(C(=O)NCC2(N3CCOCC3)CCCCC2)c1` it is inactive: -3.4%; for `CCCOc1ccc(C)cc1CN(CCCl)CCCl` it is inactive: -2.69%.
Next, `CCOc1ncccc1C(=O)NCC1(N2CCOCC2)CCCCC1`: inactive: -7.41%.
As for `CC(C)(C)OC(=O)N1CCC(Nc2ccccc2)CC1`, the activation was inactive: 6.19%.
`CCN1CCC(Nc2cccc(F)c2)CC1`: the activation was inactive: -16.1%.
Next, `CN(C)c1ccc(C(=O)NCC2(N3CCCCC3)CCCCC2)cc1`: inactive: -10.1%.
